ChEMBL document CHEMBL1124370, “Orally active aldose reductase inhibitors derived from bioisosteric substitutions on tolrestat” (1989)

Legend:
[1] = target: Aldo-keto reductase family 1 member B1 (Bos taurus) (UniProt P16116); assay: Inhibition of aldose reductase in partially purified bovine lens preparation at 10e-7 M concentration
Summary of the method: (§1)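 Aldose reductase partially purified from bovine lens, with the final chromatographic step of the earlier preparation omitted. Assay run in duplicate with test compound at 1 × 10^-6 M or 1 × 10^-7 M. Reported as % inhibition of enzymatic activity.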

[2] = target: Aldo-keto reductase family 1 member B1 (Bos taurus) (UniProt P16116); assay: Inhibition of aldose reductase in partially purified bovine lens preparation at 10e-6 M.; summary of the method: as §1

inhibition [1]: 65% | inhibition [2]: 94%
SMILES: COc1ccc2c(C(=S)N(C)CC(=O)O)cccc2c1C(F)(F)F [TOLRESTAT]
